## Measured affinities in a library of Ab-14 heavy chain variants

The measurements come from Li et al. 2023 (doi:10.1038/s41467-023-39022-2) through the FLAb antibody collection.

Target peptide (SARS-CoV-2 spike, HR2 region): PDVDLGDISGINAS

Ab-14 is the parent antibody, in scFv form: VH, then the linker GGGGSGGGGSGGGGS, then VL. The light chain is unchanged in all variants.
VH: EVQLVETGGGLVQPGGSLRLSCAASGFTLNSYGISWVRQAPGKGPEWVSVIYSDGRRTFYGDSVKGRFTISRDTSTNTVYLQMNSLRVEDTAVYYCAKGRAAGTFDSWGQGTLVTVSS
VL: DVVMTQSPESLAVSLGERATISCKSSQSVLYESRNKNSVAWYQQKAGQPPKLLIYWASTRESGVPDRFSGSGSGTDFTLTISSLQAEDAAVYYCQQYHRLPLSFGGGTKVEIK

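The parent was found by panning a naive human phage display library on the peptide. This is the validation round: designs drawn from the data on random variants, tested in the same kind of assay. Several design methods are mixed in this list. The assay is AlphaSeq: two haploid yeast populations carry antibody and antigen on their surface. Binding brings cells together so that they mate, and sequencing counts the barcode pairs among the diploids. A regression on co-assayed BCL2-family reference pairs converts the normalised counts of each replicate to an apparent Kd. There are six technical replicates.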

Variants are written as CDR1, CDR2 and CDR3 of the heavy chain (limits as in the source). Parent: GFTLNSYGIS, VIYSDGRRTFYGDSVK, GRAAGTFDS. Scale: log10 of Kd in nM, estimated from mating counts; low values are strong binders. Replicates are averaged; those with no signal do not enter the mean. Where no diploid with the target was found in that replicate, the entry reads "n.d.": below detection, most likely a poor binder, though not proof of it. Empty control strains, which show no peptide, gave a signal in 1% of pairings with all heavy chain designs; the median was 2.08 and 95% of these signals were weaker than 0.84. No background was subtracted. Also given: how often the same scFv was detected with the empty control strains, with their mean in brackets.

| # | CDR-H1 | CDR-H2 | CDR-H3 | log10 Kd, replicates | mean, log10 nM | control signals |
|---|---|---|---|---|---|---|
| 1 | GMDLQEFGIS | VIYADGVREYYTDDFK | GQIAGTFDD | 0.95 / 1.19 / 1.05 / 0.67 / 1.09 / 1.10 | 1.01 | 0/18 |
| 2 | GFNLNEYGIS | VIYADGMRNFYADSVK | GLHAGFFDI | n.d. / n.d. / n.d. / n.d. / n.d. / n.d. | n.d. | 1/18 (2.17) |
| 3 | GFTLNSYGIS | VIYSDGRRTFYGDSVK | GRLAGTFKS | n.d. / n.d. / n.d. / n.d. / n.d. / n.d. | n.d. | 0/18 |
| 4 | GFDLNSYGIS | VIYSDGERTFYGDSVK | GRAAGTFDQ | 1.31 / 1.11 / 0.92 / 1.30 / 1.03 / 0.93 | 1.10 | 1/18 (2.82) |
| 5 | GFQLNSYGIS | VIYSDGMRTFYGDSVK | GRAAGTFDS | n.d. / n.d. / n.d. / n.d. / n.d. / n.d. | n.d. | 0/18 |
| 6 | GFDLNEYGIS | VIYADGRRTFYADSVK | GNQAGTFIL | 0.91 / 0.72 / 0.65 / 0.74 / 0.85 / 1.05 | 0.82 | 0/18 |
| 7 | GFTLNSYGIS | VIYADGRRTFYGDRVK | GRAAGTFKS | n.d. / n.d. / n.d. / n.d. / n.d. / n.d. | n.d. | 0/18 |
| 8 | SFDLNSYGIS | VIYSDGRRTFYIDSVK | GRTAGTFDS | 0.71 / 1.82 / 0.92 / 1.23 / 0.34 / 0.74 | 0.96 | 1/18 (2.32) |
| 9 | GFDLNEYGIS | VIYADGTKTAYANTVK | GKYVGVFVD | 1.42 / 1.67 / n.d. / 2.22 / 0.77 / n.d. | 1.52 | 0/18 |
| 10 | GFDLEEFGIS | VIYADGMRTAYSDAVK | GTFSGTVDV | n.d. / n.d. / n.d. / n.d. / n.d. / n.d. | n.d. | 0/18 |
| 11 | GFQLNSYGIS | VIYSDGRRTFYGDSVK | GQTAGTFDS | 1.12 / 1.09 / 1.33 / 1.94 / 1.34 / 0.76 | 1.26 | 0/18 |
| 12 | GFTLNSMGIS | VIYSDGLRTFYGDSVK | GRAGGTFDS | n.d. / n.d. / n.d. / n.d. / n.d. / 1.21 | 1.21 | 0/18 |
| 13 | GFTLNTYGIS | VIYSDGRRTFYTDSVK | GRAAGTAMS | n.d. / n.d. / n.d. / n.d. / n.d. / n.d. | n.d. | 0/18 |
| 14 | GFTLNEYGIS | VIYSDGRRTFYDDSVK | GREAGTFDM | 0.14 / 0.02 / 0.02 / -0.26 / -0.18 / 0.05 | -0.04 | 2/18 (2.51) |
| 15 | GFDLNRYGIS | VIYSDGRRTFYGDSVK | GQEAGTFDS | 0.12 / 1.43 / 0.46 / 0.14 / 0.38 / 1.00 | 0.59 | 0/18 |
| 16 | GFDLNEYGIS | VIYADGMRTAYADDVK | GETAGTFDI | -0.24 / -0.46 / -0.78 / -0.80 / -0.78 / -0.36 | -0.57 | 0/18 |
| 17 | GFTLESYGIS | VIYSDGRRTYYGDSVK | GRAAGTFDS | 0.92 / 1.74 / 1.07 / 1.17 / 1.49 / 1.08 | 1.25 | 0/18 |
| 18 | GFSLNSYGIS | VIYSDGKRTFYGDSVK | GRAAGTFDS | 1.14 / 0.65 / 0.51 / 0.71 / 0.34 / 0.71 | 0.68 | 1/18 (2.14) |
| 19 | GFDLNEYGIS | VIYADGKRTFYADSVK | GEVAGTFDT | 0.07 / -0.03 / -0.63 / -0.79 / -0.29 / -0.54 | -0.37 | 0/18 |
| 20 | GFTLNSYGIS | VIYSDGRRTFYSDSVK | GRVGGTFDS | 0.65 / 0.27 / 1.24 / 0.37 / 0.74 / 0.15 | 0.57 | 0/18 |
| 21 | GFDLNEYGIS | VIYADGQRSAYADSVK | GENAGTFDV | -0.55 / -0.48 / -0.44 / 0.01 / -0.13 / -0.60 | -0.36 | 1/18 (0.90) |
| 22 | GFTLDSYGIS | VIYSDGRRTFYGDSVK | GRTAGTFDV | -0.12 / -0.41 / 0.25 / 0.17 / 0.41 / 0.99 | 0.21 | 0/18 |
| 23 | GFDLNEYGIS | VIYADGMRTSYADSVK | GNNAGTFDI | n.d. / n.d. / n.d. / n.d. / n.d. / n.d. | n.d. | 1/18 (1.88) |
| 24 | GFTLNSYGIS | VIYSDGRRTFYGDSVK | GRAAGTVDQ | n.d. / n.d. / n.d. / n.d. / n.d. / n.d. | n.d. | 0/18 |
| 25 | GFTLNSYGIS | VIYSDGKRTFYADKVK | GRAAGTFDS | 0.96 / 0.68 / 0.51 / 0.53 / 1.85 / 1.16 | 0.95 | 0/18 |
| 26 | LFTLNEYGIS | VIYSDGRRTFYSDSVK | GRTAGTFDS | n.d. / n.d. / n.d. / n.d. / n.d. / n.d. | n.d. | 0/18 |
| 27 | GFVFDEYGIS | VIYADGIRQFYQDKVK | GEVTGMFDT | n.d. / n.d. / n.d. / n.d. / n.d. / n.d. | n.d. | 0/18 |
| 28 | GFDLNEYGIS | VIYADGRRTQYIDSVK | GEIAGTFDL | 0.16 / -0.05 / -0.24 / 0.43 / 0.03 / -0.05 | 0.05 | 1/18 (1.35) |
| 29 | GFNISEYGIS | VIYADGRRTAYKNTVK | GNLTWLFDV | n.d. / n.d. / n.d. / n.d. / n.d. / n.d. | n.d. | 0/18 |
| 30 | GNNLEEYGIS | VIYADGRRTSYASDVK | GDIRGIFDS | n.d. / n.d. / n.d. / n.d. / n.d. / n.d. | n.d. | 0/18 |
| 31 | GFDLNSYGIS | VIYSDGRRTFYGDSVK | GRAAGFDDS | n.d. / n.d. / n.d. / n.d. / 1.98 / n.d. | 1.98 | 0/18 |

In the paper, a design with two or fewer of six values counts as a poor binder. Values of this round are not directly comparable with the first-round values of the same sequences.